Assay [1] addresses T1, full-length B-Catenin (Uniprot ID P35222) (Homo sapiens, UniProt P35222).
T1 construct: 10 nM full-length B-Catenin (Uniprot ID P35222)
In words: biochemical. Type of assay: binding. To be noted: beta-Catenin FP IC50 (nM), competition fluorescence polarization. For orientation: Fluorescence polarisation rises when a labelled molecule tumbles more slowly, as on binding a larger partner.

Sequences of proteins named here, by UniProt entry; tags and fusion partners are left off.
UniProt P35222, whole entry: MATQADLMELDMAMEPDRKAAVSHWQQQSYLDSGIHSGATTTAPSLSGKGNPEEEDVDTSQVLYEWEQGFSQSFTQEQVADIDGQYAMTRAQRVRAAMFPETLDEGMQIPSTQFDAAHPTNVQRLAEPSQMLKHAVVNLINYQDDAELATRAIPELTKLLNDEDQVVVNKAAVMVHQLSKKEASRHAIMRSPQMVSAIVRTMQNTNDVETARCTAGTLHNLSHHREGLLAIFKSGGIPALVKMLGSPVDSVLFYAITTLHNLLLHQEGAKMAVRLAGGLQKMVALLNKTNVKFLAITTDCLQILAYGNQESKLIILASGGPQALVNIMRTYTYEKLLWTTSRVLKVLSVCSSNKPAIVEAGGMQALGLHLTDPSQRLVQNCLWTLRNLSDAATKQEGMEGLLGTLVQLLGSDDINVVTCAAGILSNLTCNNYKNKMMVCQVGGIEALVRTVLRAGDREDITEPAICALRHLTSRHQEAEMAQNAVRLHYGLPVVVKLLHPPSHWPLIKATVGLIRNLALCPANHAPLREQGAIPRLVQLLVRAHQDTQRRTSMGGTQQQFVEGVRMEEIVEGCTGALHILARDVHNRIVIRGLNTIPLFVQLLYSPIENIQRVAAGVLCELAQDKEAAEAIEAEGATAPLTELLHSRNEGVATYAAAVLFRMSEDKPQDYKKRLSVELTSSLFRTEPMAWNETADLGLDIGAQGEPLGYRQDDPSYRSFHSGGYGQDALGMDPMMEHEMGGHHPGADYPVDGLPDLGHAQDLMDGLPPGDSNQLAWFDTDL

Assay [2] addresses beta-catenin/TCF4 interaction (Homo sapiens, UniProt P35222). In words: cell-based. On the set-up: host or cells: HEK293. The note with it: NanoBRET Abs IC50 (uM). For orientation: Bioluminescence resonance energy transfer reports proximity on the nanometre scale.

The results in this text go back to patent US20240360179A1, “STAPLED PEPTIDES AND METHODS THEREOF” (FOG PHARMACEUTICALS, INC., priority 2021, published 2024).

Where only a bound is given, the exact number is not on record here.

`CC(=O)N1CCC[C@]12CC=CCCCC1(CCCC=CCCCOC(=O)N3CC[C@@]4(C3)NC(=O)[C@H](CCCCNC(=O)CC[C@@H](C(=O)N[C@@H](C)C(N)=O)NC(=O)[C@H](Cc3csc5ccccc35)NC(=O)[C@H](Cc3ccccc3C(F)(F)F)NC4=O)NC(=O)[C@H](Cc3ccccc3)NC(=O)[C@H](C)NC(=O)C(C)(C)NC(=O)[C@H](Cc3cccc(F)c3C(=O)O)NC(=O)[C@H](CC(=O)O)NC1=O)NC(=O)[C@H](CC(C)(C)C)NC(=O)[C@H](CC(=O)O)NC2=O` (relative stereo) [I-208, Ac-PL3-Asp-Npg-B5-Asp-3F2COOHF-Aib-Ala-Phe-Lys*3-PyrS2-2F3MeF-BztA-GlnR*3-Ala-NH2]: the figures for the IC50 in assay [1] and in assay [2] were < 50 nM and 3 to 10 µM, respectively.
On the same counts, the results for `CC(=O)N1CCC[C@]12CC=CCCCC1(CCCC=CCCCOC(=O)N3CC[C@@]4(C3)NC(=O)[C@H](CCCCNC(=O)CC[C@@H](C(=O)N[C@@H](C)C(N)=O)NC(=O)[C@H](Cc3csc5ccccc35)NC(=O)[C@H](Cc3ccccc3C(F)(F)F)NC4=O)NC(=O)[C@H](Cc3ccccc3)NC(=O)[C@H](C)NC(=O)C(C)(C)NC(=O)[C@H](C(C)C)NC(=O)[C@H](CC(=O)O)NC1=O)NC(=O)[C@H](CC(C)(C)C)NC(=O)[C@H](CC(=O)O)NC2=O` (relative stereo) [I-209, Ac-PL3-Asp-Npg-B5-Asp-Val-Aib-Ala-Phe-Lys*3-PyrS2-2F3MeF-BztA-GlnR*3-Ala-NH2] are > 1000 nM and > 10 µM.
In the case of `CC(=O)N1CCC[C@]12CC=CCCCC1(CCCC=CCCCOC(=O)N3CC[C@@]4(C3)NC(=O)[C@H](CCCCNC(=O)CC[C@@H](C(=O)N[C@@H](C)C(N)=O)NC(=O)[C@H](Cc3csc5ccccc35)NC(=O)[C@H](Cc3ccccc3C(F)(F)F)NC4=O)NC(=O)[C@H](Cc3ccccc3)NC(=O)[C@H](C)NC(=O)C(C)(C)NC(=O)[C@H](CO)NC(=O)[C@H](CC(=O)O)NC1=O)NC(=O)[C@H](CC(C)(C)C)NC(=O)[C@H](CC(=O)O)NC2=O` (relative stereo) [I-210, Ac-PL3-Asp-Npg-B5-Asp-Ser-Aib-Ala-Phe-Lys*3-PyrS2-2F3MeF-BztA-GlnR*3-Ala-NH2], the IC50 (in general, the concentration that inhibits the measured activity by half) lay in the range of 50 to 200 nM in assay [1] and 3 to 10 µM in assay [2].
The like results for `CC(=O)N1CCC[C@]12CC=CCCCC1(CCCC=CCCCOC(=O)N3CC[C@@]4(C3)NC(=O)[C@H](CCCCNC(=O)CC[C@@H](C(=O)N[C@@H](C)C(N)=O)NC(=O)[C@H](Cc3csc5ccccc35)NC(=O)[C@H](Cc3ccccc3C(F)(F)F)NC4=O)NC(=O)[C@H](Cc3ccccc3)NC(=O)[C@H](C)NC(=O)C(C)(C)NC(=O)[C@H](Cc3c[nH]c4ccccc34)NC(=O)[C@H](CC(=O)O)NC1=O)NC(=O)[C@H](CC(C)(C)C)NC(=O)[C@H](CC(=O)O)NC2=O` (relative stereo) [I-211, Ac-PL3-Asp-Npg-B5-Asp-Trp-Aib-Ala-Phe-Lys*3-PyrS2-2F3MeF-BztA-GlnR*3-Ala-NH2] were, in that order, 200 to 750 nM and > 10 µM.
The like results for `CC(=O)N1CCC[C@]12CC=CCCCC1(CCCC=CCCCOC(=O)N3CC[C@@]4(C3)NC(=O)[C@H](CCCCNC(=O)CC[C@@H](C(=O)N[C@@H](C)C(N)=O)NC(=O)[C@H](Cc3csc5ccccc35)NC(=O)[C@H](Cc3ccccc3C(F)(F)F)NC4=O)NC(=O)[C@H](Cc3ccccc3)NC(=O)[C@H](C)NC(=O)C(C)(C)NC(=O)[C@H](CC(N)=O)NC(=O)[C@H](CC(=O)O)NC1=O)NC(=O)[C@H](CC(C)(C)C)NC(=O)[C@H](CC(=O)O)NC2=O` (relative stereo) [I-212, Ac-PL3-Asp-Npg-B5-Asp-Asn-Aib-Ala-Phe-Lys*3-PyrS2-2F3MeF-BztA-GlnR*3-Ala-NH2] were, in that order, < 50 nM and 3 to 10 µM.
The like results for `CC(=O)N1CCC[C@]12CC=CCCCC1(CCCC=CCCCOC(=O)N3CC[C@@]4(C3)NC(=O)[C@H](CCCCNC(=O)CC[C@@H](C(=O)N[C@@H](C)C(N)=O)NC(=O)[C@H](Cc3csc5ccccc35)NC(=O)[C@H](Cc3ccccc3C(F)(F)F)NC4=O)NC(=O)[C@H](Cc3ccccc3)NC(=O)[C@H](C)NC(=O)C(C)(C)NC(=O)[C@H](C)NC(=O)[C@H](CC(=O)O)NC1=O)NC(=O)[C@H](CC(C)(C)C)NC(=O)[C@H](CC(=O)O)NC2=O` (relative stereo) [I-213, Ac-PL3-Asp-Npg-B5-Asp-Ala-Aib-Ala-Phe-Lys*3-PyrS2-2F3MeF-BztA-GlnR*3-Ala-NH2] were, in that order, 50 to 200 nM and 3 to 10 µM.
Turning to `CC(=O)N1CCC[C@]12CC=CCCCC1(CCCC=CCCCOC(=O)N3CC[C@@]4(C3)NC(=O)[C@H](CCCCNC(=O)CC[C@@H](C(=O)N[C@@H](C)C(N)=O)NC(=O)[C@H](Cc3csc5ccccc35)NC(=O)[C@H](Cc3ccccc3C(F)(F)F)NC4=O)NC(=O)[C@H](Cc3ccccc3)NC(=O)[C@H](C)NC(=O)C(C)(C)NC(=O)[C@H](CCCNC(=N)N)NC(=O)[C@H](CC(=O)O)NC1=O)NC(=O)[C@H](CC(C)(C)C)NC(=O)[C@H](CC(=O)O)NC2=O` (relative stereo) [I-214, Ac-PL3-Asp-Npg-B5-Asp-Arg-Aib-Ala-Phe-Lys*3-PyrS2-2F3MeF-BztA-GlnR*3-Ala-NH2], the IC50 in assay [1] was 50 to 200 nM; in assay [2], > 10 µM.
With `CC(=O)N1CCC[C@]12CC=CCCCC1(CCCC=CCCCOC(=O)N3CC[C@@]4(C3)NC(=O)[C@H](CCCCNC(=O)CC[C@@H](C(=O)N[C@@H](C)C(N)=O)NC(=O)[C@H](Cc3csc5ccccc35)NC(=O)[C@H](Cc3ccccc3C(F)(F)F)NC4=O)NC(=O)[C@H](Cc3ccccc3)NC(=O)[C@H](C)NC(=O)C(C)(C)NC(=O)[C@H]([C@H](C)O)NC(=O)[C@H](CC(=O)O)NC1=O)NC(=O)[C@H](CC(C)(C)C)NC(=O)[C@H](CC(=O)O)NC2=O` (relative stereo) [I-216, Ac-PL3-Asp-Npg-B5-Asp-aThr-Aib-Ala-Phe-Lys*3-PyrS2-2F3MeF-BztA-GlnR*3-Ala-NH2], the IC50 in assay [1] fell in the range of 50 to 200 nM; in assay [2], 3 to 10 µM.
Regarding `CC(=O)N1CCC[C@]12CC=CCCCC1(CCCC=CCCCOC(=O)N3CC[C@@]4(C3)NC(=O)[C@H](CCCCNC(=O)CC[C@@H](C(=O)N[C@@H](C)C(N)=O)NC(=O)[C@H](Cc3csc5ccccc35)NC(=O)[C@H](Cc3ccccc3C(F)(F)F)NC4=O)NC(=O)[C@H](Cc3ccccc3)NC(=O)[C@H](C)NC(=O)C(C)(C)NC(=O)[C@H](CCc3ccc(O)cc3)NC(=O)[C@H](CC(=O)O)NC1=O)NC(=O)[C@H](CC(C)(C)C)NC(=O)[C@H](CC(=O)O)NC2=O` (relative stereo) [I-217, Ac-PL3-Asp-Npg-B5-Asp-hTyr-Aib-Ala-Phe-Lys*3-PyrS2-2F3MeF-BztA-GlnR*3-Ala-NH2], the IC50 in assay [1] was > 1000 nM; in assay [2], > 10 µM.
On the same counts, the results for `CC(=O)N1CCC[C@]12CC=CCCCC1(CCCC=CCCCOC(=O)N3CC[C@@]4(C3)NC(=O)[C@H](CCCCNC(=O)CC[C@@H](C(=O)N[C@@H](C)C(N)=O)NC(=O)[C@H](Cc3csc5ccccc35)NC(=O)[C@H](Cc3ccccc3C(F)(F)F)NC4=O)NC(=O)[C@H](Cc3ccccc3)NC(=O)[C@H](C)NC(=O)C(C)(C)NC(=O)[C@H](Cc3cccc(C(N)=O)c3)NC(=O)[C@H](CC(=O)O)NC1=O)NC(=O)[C@H](CC(C)(C)C)NC(=O)[C@H](CC(=O)O)NC2=O` (relative stereo) [I-218, Ac-PL3-Asp-Npg-B5-Asp-3cbmf-Aib-Ala-Phe-Lys*3-PyrS2-2F3MeF-BztA-GlnR*3-Ala-NH2] are 50 to 200 nM and 3 to 10 µM.
On the same counts, the results for `CC(=O)N1CCC[C@]12CC=CCCCC1(CCCC=CCCCOC(=O)N3CC[C@@]4(C3)NC(=O)[C@H](CCCCNC(=O)CC[C@@H](C(=O)N[C@@H](C)C(N)=O)NC(=O)[C@H](Cc3csc5ccccc35)NC(=O)[C@H](Cc3ccccc3C(F)(F)F)NC4=O)NC(=O)[C@H](Cc3ccccc3)NC(=O)[C@H](C)NC(=O)C(C)(C)NC(=O)[C@H](Cc3ccccc3)NC(=O)[C@H](CC(=O)O)NC1=O)NC(=O)[C@H](CC(C)(C)C)NC(=O)[C@H](CC(=O)O)NC2=O` (relative stereo) [I-220, Ac-PL3-Asp-Npg-B5-Asp-Phe-Aib-Ala-Phe-Lys*3-PyrS2-2F3MeF-BztA-GlnR*3-Ala-NH2] are 200 to 750 nM and > 10 µM.
On to `CC(=O)N1CCC[C@]12CC=CCCCC1(CCCC=CCCCOC(=O)N3CC[C@@]4(C3)NC(=O)[C@H](CCCCNC(=O)CC[C@@H](C(=O)N[C@@H](C)C(N)=O)NC(=O)[C@H](Cc3csc5ccccc35)NC(=O)[C@H](Cc3ccccc3C(F)(F)F)NC4=O)NC(=O)[C@H](Cc3ccccc3)NC(=O)[C@H](C)NC(=O)C(C)(C)NC(=O)[C@H](CCCCN)NC(=O)[C@H](CC(=O)O)NC1=O)NC(=O)[C@H](CC(C)(C)C)NC(=O)[C@H](CC(=O)O)NC2=O` (relative stereo) [I-221, Ac-PL3-Asp-Npg-B5-Asp-Lys-Aib-Ala-Phe-Lys*3-PyrS2-2F3MeF-BztA-GlnR*3-Ala-NH2], for which the figures for the IC50 in assay [1] and in assay [2] were 200 to 750 nM and > 10 µM, respectively.
Turning to `CC[C@H](C)[C@@H]1NC(=O)[C@H](CC(=O)O)NC(=O)C2(CCCC=CCCCOC(=O)N3CC[C@@]4(C3)NC(=O)[C@H](CCCCNC(=O)CC[C@@H](C(=O)N[C@@H](C)C(N)=O)NC(=O)[C@H](Cc3csc5ccccc35)NC(=O)[C@H](Cc3ccccc3C(F)(F)F)NC4=O)NC(=O)[C@H](Cc3ccccc3)NC(=O)[C@H](C)NC(=O)C(C)(C)NC1=O)CCCC=CC[C@]1(CCCN1C(C)=O)C(=O)N[C@@H](CC(=O)O)C(=O)N[C@@H](CC(C)(C)C)C(=O)N2` (relative stereo) [I-222, Ac-PL3-Asp-Npg-B5-Asp-Ile-Aib-Ala-Phe-Lys*3-PyrS2-2F3MeF-BztA-GlnR*3-Ala-NH2], the values for the IC50 in assay [1] and in assay [2] were > 1000 nM and > 10 µM, respectively.
On the same counts, the results for `CC(=O)N1CCC[C@]12CC=CCCCC1(CCCC=CCCCOC(=O)N3CC[C@@]4(C3)NC(=O)[C@H](CCCCNC(=O)CC[C@@H](C(=O)N[C@@H](CCCN3CCOCC3)C(N)=O)NC(=O)[C@H](Cc3csc5ccccc35)NC(=O)[C@H](Cc3ccccc3C(F)(F)F)NC4=O)NC(=O)[C@H](Cc3ccccc3)NC(=O)[C@H](C)NC(=O)C(C)(C)NC(=O)[C@H](Cc3cccc(C(=O)O)c3)NC(=O)[C@H](CC(=O)O)NC1=O)NC(=O)[C@H](CC(C)(C)C)NC(=O)[C@H](CC(=O)O)NC2=O` (relative stereo) [I-231, Ac-PL3-Asp-Npg-B5-Asp-3COOHF-Aib-Ala-Phe-Lys*3-PyrS2-2F3MeF-BztA-GlnR*3-MorphNva-NH2] are < 50 nM and > 10 µM.
